A value given as a limit tells only on which side of the number the result lay.

Amino acid sequences for entries named in this document (tags omitted).
UniProt P36888, whole entry: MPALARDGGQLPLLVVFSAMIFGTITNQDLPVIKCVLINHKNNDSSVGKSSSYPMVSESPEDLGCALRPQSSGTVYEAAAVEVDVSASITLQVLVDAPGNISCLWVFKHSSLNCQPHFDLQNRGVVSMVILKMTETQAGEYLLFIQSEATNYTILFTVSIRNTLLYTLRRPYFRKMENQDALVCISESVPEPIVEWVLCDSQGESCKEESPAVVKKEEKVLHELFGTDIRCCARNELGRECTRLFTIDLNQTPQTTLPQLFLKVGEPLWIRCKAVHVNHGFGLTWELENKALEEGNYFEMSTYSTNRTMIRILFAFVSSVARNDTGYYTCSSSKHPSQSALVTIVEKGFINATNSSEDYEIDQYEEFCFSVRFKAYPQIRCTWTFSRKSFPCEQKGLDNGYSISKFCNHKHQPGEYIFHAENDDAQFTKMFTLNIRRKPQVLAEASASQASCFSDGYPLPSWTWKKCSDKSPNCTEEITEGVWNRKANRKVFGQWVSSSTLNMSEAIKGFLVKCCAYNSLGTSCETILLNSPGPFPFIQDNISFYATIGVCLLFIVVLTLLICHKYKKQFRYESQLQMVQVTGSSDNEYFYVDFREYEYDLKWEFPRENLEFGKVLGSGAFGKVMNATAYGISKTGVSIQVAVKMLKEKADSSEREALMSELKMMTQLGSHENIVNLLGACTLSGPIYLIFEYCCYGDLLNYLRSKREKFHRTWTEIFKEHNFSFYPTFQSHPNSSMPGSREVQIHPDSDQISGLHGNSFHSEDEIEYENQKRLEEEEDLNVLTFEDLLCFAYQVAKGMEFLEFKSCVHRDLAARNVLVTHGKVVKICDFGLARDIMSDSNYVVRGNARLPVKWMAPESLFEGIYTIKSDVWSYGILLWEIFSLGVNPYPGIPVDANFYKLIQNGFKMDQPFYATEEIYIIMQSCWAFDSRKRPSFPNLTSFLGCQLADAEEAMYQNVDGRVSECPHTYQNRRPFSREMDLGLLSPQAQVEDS

These results are taken from ChEMBL document CHEMBL5715947 (Blood Cancer J, 2011).

The target of experiment [1] is T1, Receptor-type tyrosine-protein kinase FLT3 (Homo sapiens, UniProt P36888).
For experiment [2], the target named is T2, Receptor-type tyrosine-protein kinase FLT3 (Homo sapiens, UniProt P36888, ITD).
Experiment [3] can be described thus: Antiproliferative activity against relapsed human derived M2 Fab type Acute myeloid leukemic cells assessed as reduction in cell viability incubated for 48 hr by CellTiter-Glo assay. To be noted: Leukemia cell. It counts as functional, cell-based. On the technique in general: In ATP-based viability assays light output follows the ATP content of the culture.
For experiment [4], the target named is T2, Receptor-type tyrosine-protein kinase FLT3. Put plainly: Inhibition of FLT3-ITD mutant in human MV4-11 cells assessed as reduction in phosphorylated AKT protein expression incubated for 3 hrs by Western blot analysis. Type of experiment: cell-based.
The target is the same in experiment [5]. Put plainly: Inhibition of FLT3-ITD mutant in human MV4-11 cells assessed as reduction in phosphorylated ERK1/2 protein expression incubated for 3 hrs by Western blot analysis. Type of experiment: cell-based. (Immunoblotting shows a protein as a band on a membrane.)
Experiment [6] has the same target. Put plainly: Inhibition of FLT3-ITD mutant in human MV4-11 cells assessed as reduction in phosphorylated STAT5 protein expression incubated for 3 hrs by Western blot analysis. It counts as cell-based.
The target of experiment [7] is T1, Receptor-type tyrosine-protein kinase FLT3. The source holds these as a separate data set.
For experiment [8] the target is unchanged. The source holds these as a separate data set.
Experiment [9] deals with T2, Receptor-type tyrosine-protein kinase FLT3. Put plainly: Inhibition of FLT3-ITD mutant in human MOLM-13 cells assessed as reduction in phosphorylated FLT3 protein expression incubated for 3 hrs in presence of FLT3 ligand by Western blot analysis. It counts as cell-based.
The target in experiment [10] is T1, Receptor-type tyrosine-protein kinase FLT3. Put plainly: Inhibition of FLT3 in human RS4-11 cells assessed as reduction in phosphorylated FLT3 protein expression incubated for 3 hrs in presence of FLT3 ligand by Western blot analysis. It counts as cell-based.
The target in experiment [11] is T2, Receptor-type tyrosine-protein kinase FLT3. Put plainly: Inhibition of FLT3-ITD mutant in human MOLM-13 cells assessed as reduction in phosphorylated STAT5 protein expression incubated for 3 hrs in presence of FLT3 ligand by Western blot analysis. It counts as cell-based.
The target in experiment [12] is T1, Receptor-type tyrosine-protein kinase FLT3. Put plainly: Inhibition of FLT3 in human RS4-11 cells assessed as reduction in phosphorylated STAT5 protein expression incubated for 3 hrs in presence of FLT3 ligand by Western blot analysis. It counts as cell-based.

On to `C1=N/C2=N/c3ccc(OCCN4CCCC4)c(c3)COC/C=C/COCc3cccc(c3)C(=C1)N2` [PACRITINIB], for which the IC50 in experiment [1] was under 500 nM; in experiment [2] it was 80 nM; in experiment [3], 180 nM; in experiment [4] it was 29 nM; in experiment [5], 33 nM; in [6] it was 40 nM. Further, the IC50 in [7] is under 500 nM; in experiment [8], under 500 nM; in [9] it was 180 nM; in experiment [10] it was 600 nM; in experiment [11], 20 nM; in experiment [12], 8 nM.

As usually defined, the IC50 is the concentration at which inhibition is half-maximal.
